Test results taken from patent US20240294526A1, “FUSED TRI-CYCLIC COMPOUND AS A PDE3/PDE4 DUAL INHIBITOR” (CHIA TAI TIANQING PHARMACEUTICAL GROUP CO., LTD., priority 2018, published 2024).
pIC50: −log10 of the molar value.

Amino acid sequences for entries named in this document (tags omitted). Residues count along the entry.
UniProt Q07343, 305-736 limits assumed: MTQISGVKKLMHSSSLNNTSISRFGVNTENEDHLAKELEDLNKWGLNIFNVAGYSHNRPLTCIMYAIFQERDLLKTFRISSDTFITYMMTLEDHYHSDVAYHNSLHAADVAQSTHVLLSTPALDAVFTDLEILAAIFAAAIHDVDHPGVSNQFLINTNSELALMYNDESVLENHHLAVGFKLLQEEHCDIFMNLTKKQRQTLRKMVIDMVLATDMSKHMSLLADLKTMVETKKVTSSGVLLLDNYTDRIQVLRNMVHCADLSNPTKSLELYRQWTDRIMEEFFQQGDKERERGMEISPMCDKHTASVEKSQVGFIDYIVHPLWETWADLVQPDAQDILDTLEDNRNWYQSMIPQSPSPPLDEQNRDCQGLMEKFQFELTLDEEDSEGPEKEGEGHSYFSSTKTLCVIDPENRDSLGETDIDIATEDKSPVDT

Biological target: recombinant human PDE4B (Homo sapiens (Human), UniProt Q07343)
Experiment: In vitro inhibitory activity against PDE 4B enzyme (fluorescence polarization)
Format: biochemical
Settings: 1 μM cAMP
Experimental: Experimental objective: to determine the AMP/GMP expression based on fluorescence polarization, i.e., to trace binding of AMP/GMP to antibody so as to indicate enzyme activity.
Experimental buffer solution: 10 mM Tris-HCl (pH 7.5), 5 mM MgCl2, 0.01% Brij 35, 1 mM DTT, and 1% DMSO.
Enzyme: recombinant human PDE4B (Gene accession number: NM_002600; amino acid 305-end) was expressed by baculovirus in Sf9 insect cells using an N-terminal GST tag, with molecularweight being 78 kDa.
Enzyme substrate: 1 μM cAMP
Detection: Transcreener® AMP2/GMP2 antibody and AMP2/GMP2 AlexaFluor633 tracer.
• 1. The recombinant human PDE4B enzyme and enzyme substrate (1 μM cAMP) were each dissolved in newly prepared experimental buffer solution; • 2. The PDE4B enzyme buffer solution was transferred into reaction wells; • 3. The compound which was dissolved in 100% DMSO was added to the reaction wells containing PDE4B enzyme buffer solution by acoustic technique (echo 550; millilambda range) and the mixture was incubated for 10 minutes at room temperature; • 4. The enzyme substrate buffer solution was added to the above reaction wells to initiate reaction; • 5. […] The measurement range of fluorescence polarization was Ex/Em=620/688.
Data analysis: the fluorescence polarization signal was converted to nM based on AMP/GMP standard curve and the percentage enzyme activity relative to DMSO control calculated by Excel. […]

Question: How did the pIC50 turn out when CCOc1cc2c(cc1OC)-c1c/c(=N\c3c(C)cc(C)cc3C)n(CCCNc3nc[nH]n3)c(=O)n1CC2 [WX010] was run?
Answer: Its pIC50 is 8.01.
